“And” between values parts separate entries of the source, which are not always exact repeats. Identical values can stand only once. Like-named read-outs stand apart in the source and are kept apart here. Each block holds one compound with its values, some of them ahead of it.
Legend:
[1] = tested on: human breast MDA-MB-361 tumor cell line; experiment: In vitro cell culture growth assay (MTS), MDA-MB-361; type: cell-based
PI3K-α = PI3K-α (Homo sapiens, UniProt P42336); experiment: PI3K-alpha fluorescence polarization assay; conditions: read-out: IC50 PI3Kα
PI3K-γ = PI3K-γ (Homo sapiens, UniProt P48736); experiment: PI3K-gamma fluorescence polarization assay; conditions: read-out: IC50 PI3Kγ
Human mTOR (FLAG-TOR) = Human mTOR (FLAG-TOR) (Homo sapiens, UniProt P42345); experiment: mTOR kinase assay (DELFIA format, purified enzyme); type: biochemical

Amino acid sequences for entries named in this document (tags omitted).
UniProt P42336, whole entry, species assumed: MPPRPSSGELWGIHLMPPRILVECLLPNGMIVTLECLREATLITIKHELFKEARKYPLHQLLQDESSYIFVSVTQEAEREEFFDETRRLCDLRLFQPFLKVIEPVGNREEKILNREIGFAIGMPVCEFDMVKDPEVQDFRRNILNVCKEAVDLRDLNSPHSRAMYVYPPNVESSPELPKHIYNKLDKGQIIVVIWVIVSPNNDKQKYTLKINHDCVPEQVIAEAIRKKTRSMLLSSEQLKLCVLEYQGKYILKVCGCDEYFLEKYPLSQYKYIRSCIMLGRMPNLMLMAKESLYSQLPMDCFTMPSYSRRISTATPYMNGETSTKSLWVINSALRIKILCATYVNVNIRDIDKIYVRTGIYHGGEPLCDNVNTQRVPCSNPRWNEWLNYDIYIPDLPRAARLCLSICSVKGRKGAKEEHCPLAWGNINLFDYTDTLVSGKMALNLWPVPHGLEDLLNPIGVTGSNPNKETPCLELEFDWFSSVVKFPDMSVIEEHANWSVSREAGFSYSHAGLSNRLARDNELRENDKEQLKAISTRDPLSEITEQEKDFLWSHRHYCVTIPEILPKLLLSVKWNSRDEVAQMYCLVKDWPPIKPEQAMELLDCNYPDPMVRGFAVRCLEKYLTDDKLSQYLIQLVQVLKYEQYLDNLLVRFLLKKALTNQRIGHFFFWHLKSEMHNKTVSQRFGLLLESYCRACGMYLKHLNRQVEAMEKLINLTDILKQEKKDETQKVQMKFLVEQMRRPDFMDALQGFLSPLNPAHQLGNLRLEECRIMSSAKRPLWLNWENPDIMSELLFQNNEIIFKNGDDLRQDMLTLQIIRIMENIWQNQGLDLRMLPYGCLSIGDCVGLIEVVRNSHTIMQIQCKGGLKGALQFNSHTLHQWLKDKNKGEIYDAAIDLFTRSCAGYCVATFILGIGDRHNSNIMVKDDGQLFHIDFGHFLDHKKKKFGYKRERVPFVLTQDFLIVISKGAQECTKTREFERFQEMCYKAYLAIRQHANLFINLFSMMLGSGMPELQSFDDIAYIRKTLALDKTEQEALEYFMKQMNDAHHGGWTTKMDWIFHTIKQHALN
UniProt P48736, whole entry, species assumed: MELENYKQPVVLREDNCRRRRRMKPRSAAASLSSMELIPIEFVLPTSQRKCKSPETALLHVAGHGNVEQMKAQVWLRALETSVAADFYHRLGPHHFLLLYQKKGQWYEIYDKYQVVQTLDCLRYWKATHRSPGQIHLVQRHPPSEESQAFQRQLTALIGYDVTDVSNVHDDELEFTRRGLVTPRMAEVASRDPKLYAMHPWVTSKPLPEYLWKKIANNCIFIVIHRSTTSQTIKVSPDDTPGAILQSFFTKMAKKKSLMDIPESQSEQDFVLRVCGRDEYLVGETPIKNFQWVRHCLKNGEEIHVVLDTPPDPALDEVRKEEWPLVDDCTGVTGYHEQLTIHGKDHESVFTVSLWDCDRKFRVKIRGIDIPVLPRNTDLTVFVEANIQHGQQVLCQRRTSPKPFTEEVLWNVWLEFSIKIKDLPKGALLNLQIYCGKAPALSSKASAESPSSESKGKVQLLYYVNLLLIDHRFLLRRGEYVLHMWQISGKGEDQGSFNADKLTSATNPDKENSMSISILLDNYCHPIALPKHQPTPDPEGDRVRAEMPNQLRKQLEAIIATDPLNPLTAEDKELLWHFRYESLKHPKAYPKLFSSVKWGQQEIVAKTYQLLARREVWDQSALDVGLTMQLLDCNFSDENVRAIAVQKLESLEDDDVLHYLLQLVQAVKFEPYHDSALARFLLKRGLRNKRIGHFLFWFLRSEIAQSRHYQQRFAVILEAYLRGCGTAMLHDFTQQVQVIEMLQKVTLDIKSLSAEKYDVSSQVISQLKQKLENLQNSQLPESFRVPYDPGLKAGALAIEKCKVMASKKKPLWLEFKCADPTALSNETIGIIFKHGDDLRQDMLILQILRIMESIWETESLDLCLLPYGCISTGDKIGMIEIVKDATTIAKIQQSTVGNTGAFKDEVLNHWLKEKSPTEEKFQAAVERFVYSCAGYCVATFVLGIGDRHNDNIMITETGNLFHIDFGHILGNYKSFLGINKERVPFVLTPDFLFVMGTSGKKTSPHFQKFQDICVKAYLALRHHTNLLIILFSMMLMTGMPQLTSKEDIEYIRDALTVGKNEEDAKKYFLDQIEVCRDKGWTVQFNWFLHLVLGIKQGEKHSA

Compound: N-[2-(dimethylamino)ethyl]-4-({[4-(4-morpholin-4-yl-6-piperidin-1-yl-1,3,5-triazin-2-yl)phenyl]carbamoyl}amino)benzamide [Example 601]
IC50 ([1]; MTS cell growth assay, three days after drug treatment, MDA-MB-361 cells, read-out: IC50 MDA-MB-361): 22 nM

IC50 (PI3K-α): 2 nM
IC50 ([1]; Homo sapiens, MDA-MB-361, 72 h, read-out: IC50 MDA-MB-361, MTS cell growth assay, three days after drug treatment): 19 nM
Compound: CNC(=O)c1ccc(NC(=O)Nc2ccc(-c3nc(N4CCOCC4)nc(N4CCOCC4)n3)cc2)cc1 [Example 70, 4-(3-(4-(4,6-dimorpholino-1,3,5-triazin-2-yl)phenyl)ureido)-N-methylbenzamide]

Compound: COc1nc(-c2ccc(NC(=O)Nc3ccc(C(=O)NCCN4CCCCC4)cc3)cc2)nc(N2CCOCC2)n1 [Example 248, 4-({[4-(4-methoxy-6-morpholin-4-yl-1,3,5-triazin-2-yl)phenyl]carbamoyl}amino)-N-(2-piperidin-1-ylethyl)benzamide]
IC50 (PI3K-γ): 18 nM
IC50 (Human mTOR (FLAG-TOR)): 6.4 nM and 8.2 nM

From patent US20090304692A1, “TRIAZINE COMPOUNDS AS PI3 KINASE AND MTOR INHIBITORS” (Wyeth, priority 2008, published 2009)
